For 2 compounds, Ki and Ratio Ki results are on record in ChEMBL document CHEMBL4480394, “Benzimidazolone-based selective σ2 receptor ligands: Synthesis and pharmacological evaluation” (Eur J Med Chem, 2019).

Protein sequences, listed by entry. Tags and fused reporters are not part of them.
UniProt Q9R0C9, whole entry: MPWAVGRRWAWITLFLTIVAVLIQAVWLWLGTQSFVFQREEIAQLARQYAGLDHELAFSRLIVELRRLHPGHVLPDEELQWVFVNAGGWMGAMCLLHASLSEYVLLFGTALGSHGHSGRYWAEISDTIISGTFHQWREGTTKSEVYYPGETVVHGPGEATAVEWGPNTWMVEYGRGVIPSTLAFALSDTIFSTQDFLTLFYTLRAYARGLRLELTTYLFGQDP

As usually defined, the Ki is a dissociation constant, usually derived from enzyme kinetics or from competition with a known ligand. Read a low Ki as a stronger hold on the target.

For test [1], the target named is Sigma non-opioid intracellular receptor 1 (Rattus norvegicus, UniProt Q9R0C9). The test can be described thus: Displacement of [3H](+)-pentazocine from sigma1 receptor in rat brain membranes after 120 mins by radioligand binding assay. The test is classed as cell membranes. (Loss of bound radioactivity is the signal in a displacement assay; it reports binding, not function.)

Another test is filed under the species Rattus norvegicus. The experiment in a line: Selectivity ratio of Ki for sigma1 receptor in rat brain membranes to Ki for sigma2 receptor in rat brain membranes. It is filed as cell membranes.

With `Cn1c(=O)n(CCCCN2CCN(c3ccc(F)cc3)CC2)c2ccccc21`, the Ki in test [1] was determined as 0.366 µM.
In the case of `O=c1[nH]c2ccccc2n1CCCCN1CCN(c2ccc(F)cc2)CC1`, in the test listed under Rattus norvegicus, the Ratio Ki was 7.8.
